# Measured values reported in paper PMC3262757 (Chemistry Central Journal, 2011).
# Tested on: JNK2
# Assay type: cell-based
smiles,measurement,value
"CCOc1nc(NC(=O)Cc2cc(OC)ccc2OC)cc(N)c1C#N [compound 1, N-(4-Amino-5-cyano-6-ethoxypyridin-2-yl)-2-(2,5-dimethoxyphenyl)acetamide]",IC50,~1500 nM
